Tests used:
[1] = Leaching study of treated wood test blocks into water (Example 2); format: physicochemical; conditions: average of three blocks, room temperature, after two days
Method: Wood test blocks prepared in accordance with Example 1, were subjected to a leaching study.
In this leaching study the following procedure was observed. • 1. The wood test block was placed in 500 ml plastic containers with screw caps. • 2. Water was added to the container to over flowing and the container was sealed. • 3. The containers were stored at room temperature. • 4.

[2] = Leaching study of treated wood test blocks into water (Example 4); format: physicochemical; conditions: average of three blocks, room temperature, start Sep. 1, 2004
Method: In this example test blocks were prepared in accordance with the procedure of Example 1 and subjected a leaching study using the following procedure. • 1. The wood test blocks were placed in 500 ml plastic containers with screw caps. • 2. Water was added to the containers to over flowing and the container was sealed. • 3. The containers were stored at room temperature.
4. After two days the containers were opened and the leachate was analyzed for active quaternary compound (QAC) using a Hach DR/2400 Spectrophotometer.

For “alkyl dimethyl benzyl ammonium saccharinate [ADBAS]”, the “amount water soluble in ethanol and water” value (approximately equal volumes of ethanol and water, approximately 150° F., by weight of the solution) was at most 5%, the water solubility (water) was “extremely water insoluble” and the “AVERAGE active quaternary compound in leachate, FINAL DATE May 8, 2004” value [1] was 13.9 PPM QAC. The “AVERAGE active quaternary compound in leachate, FINAL DATE Sep. 5, 2004” value [2] was 59.33 PPM QAC.

From patent US20060128773A1, “Wood preservatives and waterproofing compositions and processes” (priority 2004, published 2006)
